Measurements reported in US7192924B2, “Corticotropin releasing factor 2 receptor agonists” (priority 2002, dated 2007).

Tests used:
CRF2R = target: T1, CRF2R (Homo sapiens, UniProt Q13324); test: CRF2R agonist activity (EC50, Emax), called comparative CRF binding; format: cell-based
T1 sequence (Q13324 1-411): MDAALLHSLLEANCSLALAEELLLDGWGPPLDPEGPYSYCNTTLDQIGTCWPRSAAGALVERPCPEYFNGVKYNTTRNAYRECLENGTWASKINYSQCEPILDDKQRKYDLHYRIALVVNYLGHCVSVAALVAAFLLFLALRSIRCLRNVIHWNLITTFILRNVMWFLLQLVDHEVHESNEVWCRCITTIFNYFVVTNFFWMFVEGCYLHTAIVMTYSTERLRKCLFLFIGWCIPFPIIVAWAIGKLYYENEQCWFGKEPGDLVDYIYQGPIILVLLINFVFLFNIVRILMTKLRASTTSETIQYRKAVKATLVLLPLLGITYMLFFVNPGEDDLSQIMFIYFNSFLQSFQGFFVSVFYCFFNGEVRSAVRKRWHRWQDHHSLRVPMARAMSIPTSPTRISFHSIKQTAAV
Outline: (§1)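 Peptides were applied to cells carrying a single CRFR subtype, then cAMP levels or CRE-driven reporter expression were quantified against vehicle-treated cells.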

CRF1R = target: T2, CRF1R (Homo sapiens, UniProt P34998); test: CRF1R agonist activity (EC50, Emax), called comparative CRF binding; format: cell-based
T2 sequence (P34998 24-415): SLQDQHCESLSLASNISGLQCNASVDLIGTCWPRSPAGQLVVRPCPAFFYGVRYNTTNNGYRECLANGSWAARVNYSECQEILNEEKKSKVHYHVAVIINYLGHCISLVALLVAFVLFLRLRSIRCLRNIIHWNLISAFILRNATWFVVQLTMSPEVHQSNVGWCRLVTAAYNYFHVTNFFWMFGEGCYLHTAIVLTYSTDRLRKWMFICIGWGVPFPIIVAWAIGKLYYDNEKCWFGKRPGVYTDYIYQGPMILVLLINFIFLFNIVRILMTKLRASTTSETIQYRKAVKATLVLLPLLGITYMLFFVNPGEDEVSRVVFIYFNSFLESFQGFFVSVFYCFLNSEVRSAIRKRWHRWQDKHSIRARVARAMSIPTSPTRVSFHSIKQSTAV
Outline: as §1

| SMILES | EC50 (CRF2R) | EC50 (CRF1R) |
| --- | --- | --- |
| CC[C@H](C)[C@H](NC(=O)[C@@H](NC(=O)[C@H](CC(=O)O)NC(=O)[C@H](CC(C)C)NC(=O)[C@H](CC(C)C)NC(=O)[C@H](CC(C)C)NC(=O)[C@H](CCCNC(=N)N)NC(=O)[C@H](CC(N)=O)NC(=O)[C@H](CC(N)=O)NC(=O)[C@H](C)NC(=O)[C@H](C)NC(=O)[C@H](CCC(N)=O)NC(=O)[C@H](CCC(N)=O)NC(=O)[C@H](CCCCN)NC(=O)[C@H](CCC(=O)O)NC(=O)[C@H](CCCCN)NC(=O)[C@H](CCC(=O)O)NC(=O)[C@H](CCC(N)=O)NC(=O)[C@H](CCCCN)NC(=O)[C@H](CCC(=O)O)NC(=O)[C@@H](NC(=O)[C@H](CCC(=O)O)NC(=O)[C@@H](NC(=O)[C@H](CCSC)NC(=O)[C@H](CCCCN)NC(=O)[C@H](CCCNC(=N)N)NC(=O)[C@H](CC(C)C)NC(=O)[C@H](CC(C)C)NC(=O)[C@H](C)NC(=O)[C@H](CC(C)C)NC(=O)[C@@H]1CCCN1C(=O)[C@H](CC(C)C)NC(=O)[C@H](CC(=O)O)NC(=O)[C@@H](NC(=O)[C@H](CO)NC(=O)[C@@H](NC(=O)[C@@H]1CCCN1C(=O)[C@@H]1CCCN1C(=O)CNC(=O)[C@@H]1CCC(=O)N1)[C@@H](C)CC)[C@@H](C)CC)[C@@H](C)CC)[C@@H](C)CC)[C@@H](C)O)C(N)=O [compound 308] | 3.3 nM | 63.5 nM |
| CC[C@H](C)[C@H](NC(=O)[C@@H](NC(=O)[C@H](CC(=O)O)NC(=O)[C@H](CC(C)C)NC(=O)[C@H](CC(C)C)NC(=O)[C@H](CC(C)C)NC(=O)[C@H](CCCNC(=N)N)NC(=O)[C@H](CC(N)=O)NC(=O)[C@H](CC(N)=O)NC(=O)[C@H](C)NC(=O)[C@H](C)NC(=O)[C@H](CCC(N)=O)NC(=O)[C@H](CCC(N)=O)NC(=O)[C@H](CCCCN)NC(=O)[C@H](CCC(=O)O)NC(=O)[C@H](CCCCN)NC(=O)[C@H](CCC(=O)O)NC(=O)[C@H](CCC(N)=O)NC(=O)[C@H](CCCCN)NC(=O)[C@H](CCC(=O)O)NC(=O)[C@@H](NC(=O)[C@H](CCC(=O)O)NC(=O)[C@@H](NC(=O)[C@H](CCSC)NC(=O)[C@H](CCCCN)NC(=O)[C@H](CCCNC(=N)N)NC(=O)[C@H](CC(C)C)NC(=O)[C@H](CC(C)C)NC(=O)[C@H](C)NC(=O)[C@H](Cc1ccc(O)cc1)NC(=O)[C@@H]1CCCN1C(=O)[C@H](CC(C)C)NC(=O)[C@H](CC(=O)O)NC(=O)[C@@H](NC(=O)[C@H](CO)NC(=O)[C@@H](NC(=O)[C@@H]1CCCN1C(=O)[C@@H]1CCCN1C(=O)CNC(=O)[C@@H]1CCC(=O)N1)[C@@H](C)CC)[C@@H](C)CC)[C@@H](C)CC)[C@@H](C)CC)[C@@H](C)O)C(N)=O [compound 309] | 5.55 nM | 108 nM |
| CC[C@H](C)[C@H](NC(=O)[C@@H](NC(=O)[C@H](CC(=O)O)NC(=O)[C@H](CC(C)C)NC(=O)[C@H](CC(C)C)NC(=O)[C@H](CC(C)C)NC(=O)[C@H](C)NC(=O)[C@H](CC(N)=O)NC(=O)[C@H](CC(N)=O)NC(=O)[C@H](C)NC(=O)[C@H](C)NC(=O)[C@H](CCC(N)=O)NC(=O)[C@H](CCC(N)=O)NC(=O)[C@H](CCCCN)NC(=O)[C@H](CCC(=O)O)NC(=O)[C@H](CCCCN)NC(=O)[C@H](CCC(=O)O)NC(=O)[C@H](CCC(N)=O)NC(=O)[C@H](CCCCN)NC(=O)[C@H](CCC(=O)O)NC(=O)[C@@H](NC(=O)[C@H](CCC(=O)O)NC(=O)[C@@H](NC(=O)[C@@H](NC(=O)[C@H](CCCCN)NC(=O)[C@H](CCCNC(=N)N)NC(=O)[C@H](CC(C)C)NC(=O)[C@H](CC(C)C)NC(=O)[C@H](Cc1c[nH]c2ccccc12)NC(=O)[C@H](Cc1ccc(O)cc1)NC(=O)[C@@H]1CCCN1C(=O)[C@H](CC(C)C)NC(=O)[C@H](CC(=O)O)NC(=O)[C@@H](NC(=O)[C@H](CO)NC(=O)[C@@H](NC(=O)[C@@H]1CCCN1C(=O)[C@@H]1CCCN1C(=O)CNC(=O)[C@@H]1CCC(=O)N1)[C@@H](C)CC)[C@@H](C)CC)C(C)C)[C@@H](C)CC)[C@@H](C)CC)[C@@H](C)O)C(N)=O [compound 311] | 11.7 nM | ≥ 1000 nM |
| CC[C@H](C)[C@H](NC(=O)[C@H](CCCNC(=N)N)NC(=O)[C@H](C)NC(=O)[C@H](CC(N)=O)NC(=O)[C@@H](NC(=O)[C@@H](NC(=O)[C@H](C)NC(=O)[C@H](CCC(N)=O)NC(=O)[C@H](CCC(N)=O)NC(=O)[C@H](CCCCN)NC(=O)[C@H](CCC(=O)O)NC(=O)[C@H](CCCCN)NC(=O)[C@H](CCC(=O)O)NC(=O)[C@H](CCC(N)=O)NC(=O)[C@H](CCCCN)NC(=O)[C@H](CCC(=O)O)NC(=O)[C@@H](NC(=O)[C@H](CCC(=O)O)NC(=O)[C@@H](NC(=O)[C@@H](NC(=O)[C@H](CCCCN)NC(=O)[C@H](CCCNC(=N)N)NC(=O)[C@H](CC(C)C)NC(=O)[C@H](CC(C)C)NC(=O)[C@H](CCC(N)=O)NC(=O)[C@H](CC(C)C)NC(=O)[C@@H]1CCCN1C(=O)[C@H](CC(C)C)NC(=O)[C@H](CC(=O)O)NC(=O)[C@@H](NC(=O)[C@H](CO)NC(=O)[C@@H](NC(=O)[C@@H]1CCCN1C(=O)[C@@H]1CCCN1C(=O)CNC(=O)[C@@H]1CCC(=O)N1)[C@@H](C)CC)[C@@H](C)CC)C(C)C)[C@@H](C)CC)[C@@H](C)CC)[C@@H](C)O)[C@@H](C)O)C(=O)N[C@@H](CC(C)C)C(=O)N[C@@H](C)C(=O)N[C@@H](CCCNC(=N)N)C(=O)N[C@H](C(N)=O)C(C)C [compound 320] | 19.1 nM | 718 nM |
| CC[C@H](C)[C@H](NC(=O)[C@H](CCC(=O)O)NC(=O)[C@@H](NC(=O)[C@@H](NC(=O)[C@H](CCCCN)NC(=O)[C@H](CCCNC(=N)N)NC(=O)[C@H](CC(C)C)NC(=O)[C@H](CC(C)C)NC(=O)[C@H](CCC(N)=O)NC(=O)[C@H](Cc1ccccc1)NC(=O)[C@@H]1CCCN1C(=O)[C@H](CC(C)C)NC(=O)[C@H](CC(=O)O)NC(=O)[C@@H](NC(=O)[C@H](CO)NC(=O)[C@@H](NC(=O)[C@@H]1CCCN1C(=O)[C@@H]1CCCN1C(=O)CNC(=O)[C@@H]1CCC(=O)N1)[C@@H](C)CC)[C@@H](C)CC)[C@@H](C)O)[C@@H](C)CC)C(=O)N[C@@H](CCC(=O)O)C(=O)N[C@@H](CCCCN)C(=O)N[C@@H](CCC(N)=O)C(=O)N[C@@H](CCC(=O)O)C(=O)N[C@@H](CCCCN)C(=O)N[C@@H](CCC(=O)O)C(=O)N[C@@H](CCCCN)C(=O)N[C@@H](CCC(N)=O)C(=O)N[C@@H](CCC(N)=O)C(=O)N[C@@H](C)C(=O)N[C@H](C(=O)N[C@H](C(=O)N[C@@H](CC(N)=O)C(=O)N[C@@H](C)C(=O)N[C@@H](CCCNC(=N)N)C(=O)N[C@@H](CC(C)C)C(=O)N[C@@H](CC(C)C)C(=O)N[C@@H](CC(=O)O)C(=O)N[C@@H](CCCNC(=N)N)C(=O)N[C@H](C(N)=O)C(C)C)[C@@H](C)O)[C@@H](C)O [compound 321] | 19.6 nM | ≥ 1000 nM |
